Four molecules from patent publication US20240108738A1, “BICYCLIC PEPTIDE LIGANDS SPECIFIC FOR NK CELLS” (Bicycle Tx Limited, priority 2021, published 2024) can be followed below.

Protein sequences, listed by entry. Tags and fused reporters are not part of them. Chains listed by the source or under a name are the forms on record and can include a tag or linker. Residues count along the entry.
Human NKp46 Fc tag (Acro Biosystems, NC1-H5257) (human), O76036, UniProt O76036, 22-255 limits assumed: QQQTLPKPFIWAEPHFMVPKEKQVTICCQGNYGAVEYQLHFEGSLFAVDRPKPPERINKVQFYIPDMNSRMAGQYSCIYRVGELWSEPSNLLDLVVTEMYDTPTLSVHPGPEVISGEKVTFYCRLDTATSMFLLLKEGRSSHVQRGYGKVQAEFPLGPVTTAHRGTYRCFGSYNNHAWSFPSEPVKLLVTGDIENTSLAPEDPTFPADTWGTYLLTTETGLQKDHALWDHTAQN

As a reminder, the Kd is the concentration at which binding is half-saturated. A higher Kd goes with a looser complex.

The target in this assay is Human NKp46 Fc tag (Acro Biosystems, NC1-H5257) (human), O76036. The experiment in a line: SPR Method 1 and/or 2.

As for ACNLQQPCMLTGKVCA (modifications not checked) [BCY19708], the equilibrium dissociation constant (Kd) was determined as 1740 nM. This lies in the single-digit micromolar range.

ACNLQAPCMQTGKVCA (modifications not checked) [BCY15098] gave a Kd of 1070 nM. This Kd is about 1.6-fold lower than that of the molecule before. In the case of CDLTTHNCQWGIC (modifications not checked) [BCY18262], the dissociation constant Kd is 3180 nM. For the molecule ACALTTHNCQWGICA (modifications not checked) [BCY18263], the Kd was determined as 1740 nM. Compared with the last molecule, the Kd is about 1.8-fold lower.
